This note sets out measurements from PMC8164048.

Chains of the proteins cited; added tags and fusions are not shown. Residues count along the entry.
UniProt Q07954, 20-4544: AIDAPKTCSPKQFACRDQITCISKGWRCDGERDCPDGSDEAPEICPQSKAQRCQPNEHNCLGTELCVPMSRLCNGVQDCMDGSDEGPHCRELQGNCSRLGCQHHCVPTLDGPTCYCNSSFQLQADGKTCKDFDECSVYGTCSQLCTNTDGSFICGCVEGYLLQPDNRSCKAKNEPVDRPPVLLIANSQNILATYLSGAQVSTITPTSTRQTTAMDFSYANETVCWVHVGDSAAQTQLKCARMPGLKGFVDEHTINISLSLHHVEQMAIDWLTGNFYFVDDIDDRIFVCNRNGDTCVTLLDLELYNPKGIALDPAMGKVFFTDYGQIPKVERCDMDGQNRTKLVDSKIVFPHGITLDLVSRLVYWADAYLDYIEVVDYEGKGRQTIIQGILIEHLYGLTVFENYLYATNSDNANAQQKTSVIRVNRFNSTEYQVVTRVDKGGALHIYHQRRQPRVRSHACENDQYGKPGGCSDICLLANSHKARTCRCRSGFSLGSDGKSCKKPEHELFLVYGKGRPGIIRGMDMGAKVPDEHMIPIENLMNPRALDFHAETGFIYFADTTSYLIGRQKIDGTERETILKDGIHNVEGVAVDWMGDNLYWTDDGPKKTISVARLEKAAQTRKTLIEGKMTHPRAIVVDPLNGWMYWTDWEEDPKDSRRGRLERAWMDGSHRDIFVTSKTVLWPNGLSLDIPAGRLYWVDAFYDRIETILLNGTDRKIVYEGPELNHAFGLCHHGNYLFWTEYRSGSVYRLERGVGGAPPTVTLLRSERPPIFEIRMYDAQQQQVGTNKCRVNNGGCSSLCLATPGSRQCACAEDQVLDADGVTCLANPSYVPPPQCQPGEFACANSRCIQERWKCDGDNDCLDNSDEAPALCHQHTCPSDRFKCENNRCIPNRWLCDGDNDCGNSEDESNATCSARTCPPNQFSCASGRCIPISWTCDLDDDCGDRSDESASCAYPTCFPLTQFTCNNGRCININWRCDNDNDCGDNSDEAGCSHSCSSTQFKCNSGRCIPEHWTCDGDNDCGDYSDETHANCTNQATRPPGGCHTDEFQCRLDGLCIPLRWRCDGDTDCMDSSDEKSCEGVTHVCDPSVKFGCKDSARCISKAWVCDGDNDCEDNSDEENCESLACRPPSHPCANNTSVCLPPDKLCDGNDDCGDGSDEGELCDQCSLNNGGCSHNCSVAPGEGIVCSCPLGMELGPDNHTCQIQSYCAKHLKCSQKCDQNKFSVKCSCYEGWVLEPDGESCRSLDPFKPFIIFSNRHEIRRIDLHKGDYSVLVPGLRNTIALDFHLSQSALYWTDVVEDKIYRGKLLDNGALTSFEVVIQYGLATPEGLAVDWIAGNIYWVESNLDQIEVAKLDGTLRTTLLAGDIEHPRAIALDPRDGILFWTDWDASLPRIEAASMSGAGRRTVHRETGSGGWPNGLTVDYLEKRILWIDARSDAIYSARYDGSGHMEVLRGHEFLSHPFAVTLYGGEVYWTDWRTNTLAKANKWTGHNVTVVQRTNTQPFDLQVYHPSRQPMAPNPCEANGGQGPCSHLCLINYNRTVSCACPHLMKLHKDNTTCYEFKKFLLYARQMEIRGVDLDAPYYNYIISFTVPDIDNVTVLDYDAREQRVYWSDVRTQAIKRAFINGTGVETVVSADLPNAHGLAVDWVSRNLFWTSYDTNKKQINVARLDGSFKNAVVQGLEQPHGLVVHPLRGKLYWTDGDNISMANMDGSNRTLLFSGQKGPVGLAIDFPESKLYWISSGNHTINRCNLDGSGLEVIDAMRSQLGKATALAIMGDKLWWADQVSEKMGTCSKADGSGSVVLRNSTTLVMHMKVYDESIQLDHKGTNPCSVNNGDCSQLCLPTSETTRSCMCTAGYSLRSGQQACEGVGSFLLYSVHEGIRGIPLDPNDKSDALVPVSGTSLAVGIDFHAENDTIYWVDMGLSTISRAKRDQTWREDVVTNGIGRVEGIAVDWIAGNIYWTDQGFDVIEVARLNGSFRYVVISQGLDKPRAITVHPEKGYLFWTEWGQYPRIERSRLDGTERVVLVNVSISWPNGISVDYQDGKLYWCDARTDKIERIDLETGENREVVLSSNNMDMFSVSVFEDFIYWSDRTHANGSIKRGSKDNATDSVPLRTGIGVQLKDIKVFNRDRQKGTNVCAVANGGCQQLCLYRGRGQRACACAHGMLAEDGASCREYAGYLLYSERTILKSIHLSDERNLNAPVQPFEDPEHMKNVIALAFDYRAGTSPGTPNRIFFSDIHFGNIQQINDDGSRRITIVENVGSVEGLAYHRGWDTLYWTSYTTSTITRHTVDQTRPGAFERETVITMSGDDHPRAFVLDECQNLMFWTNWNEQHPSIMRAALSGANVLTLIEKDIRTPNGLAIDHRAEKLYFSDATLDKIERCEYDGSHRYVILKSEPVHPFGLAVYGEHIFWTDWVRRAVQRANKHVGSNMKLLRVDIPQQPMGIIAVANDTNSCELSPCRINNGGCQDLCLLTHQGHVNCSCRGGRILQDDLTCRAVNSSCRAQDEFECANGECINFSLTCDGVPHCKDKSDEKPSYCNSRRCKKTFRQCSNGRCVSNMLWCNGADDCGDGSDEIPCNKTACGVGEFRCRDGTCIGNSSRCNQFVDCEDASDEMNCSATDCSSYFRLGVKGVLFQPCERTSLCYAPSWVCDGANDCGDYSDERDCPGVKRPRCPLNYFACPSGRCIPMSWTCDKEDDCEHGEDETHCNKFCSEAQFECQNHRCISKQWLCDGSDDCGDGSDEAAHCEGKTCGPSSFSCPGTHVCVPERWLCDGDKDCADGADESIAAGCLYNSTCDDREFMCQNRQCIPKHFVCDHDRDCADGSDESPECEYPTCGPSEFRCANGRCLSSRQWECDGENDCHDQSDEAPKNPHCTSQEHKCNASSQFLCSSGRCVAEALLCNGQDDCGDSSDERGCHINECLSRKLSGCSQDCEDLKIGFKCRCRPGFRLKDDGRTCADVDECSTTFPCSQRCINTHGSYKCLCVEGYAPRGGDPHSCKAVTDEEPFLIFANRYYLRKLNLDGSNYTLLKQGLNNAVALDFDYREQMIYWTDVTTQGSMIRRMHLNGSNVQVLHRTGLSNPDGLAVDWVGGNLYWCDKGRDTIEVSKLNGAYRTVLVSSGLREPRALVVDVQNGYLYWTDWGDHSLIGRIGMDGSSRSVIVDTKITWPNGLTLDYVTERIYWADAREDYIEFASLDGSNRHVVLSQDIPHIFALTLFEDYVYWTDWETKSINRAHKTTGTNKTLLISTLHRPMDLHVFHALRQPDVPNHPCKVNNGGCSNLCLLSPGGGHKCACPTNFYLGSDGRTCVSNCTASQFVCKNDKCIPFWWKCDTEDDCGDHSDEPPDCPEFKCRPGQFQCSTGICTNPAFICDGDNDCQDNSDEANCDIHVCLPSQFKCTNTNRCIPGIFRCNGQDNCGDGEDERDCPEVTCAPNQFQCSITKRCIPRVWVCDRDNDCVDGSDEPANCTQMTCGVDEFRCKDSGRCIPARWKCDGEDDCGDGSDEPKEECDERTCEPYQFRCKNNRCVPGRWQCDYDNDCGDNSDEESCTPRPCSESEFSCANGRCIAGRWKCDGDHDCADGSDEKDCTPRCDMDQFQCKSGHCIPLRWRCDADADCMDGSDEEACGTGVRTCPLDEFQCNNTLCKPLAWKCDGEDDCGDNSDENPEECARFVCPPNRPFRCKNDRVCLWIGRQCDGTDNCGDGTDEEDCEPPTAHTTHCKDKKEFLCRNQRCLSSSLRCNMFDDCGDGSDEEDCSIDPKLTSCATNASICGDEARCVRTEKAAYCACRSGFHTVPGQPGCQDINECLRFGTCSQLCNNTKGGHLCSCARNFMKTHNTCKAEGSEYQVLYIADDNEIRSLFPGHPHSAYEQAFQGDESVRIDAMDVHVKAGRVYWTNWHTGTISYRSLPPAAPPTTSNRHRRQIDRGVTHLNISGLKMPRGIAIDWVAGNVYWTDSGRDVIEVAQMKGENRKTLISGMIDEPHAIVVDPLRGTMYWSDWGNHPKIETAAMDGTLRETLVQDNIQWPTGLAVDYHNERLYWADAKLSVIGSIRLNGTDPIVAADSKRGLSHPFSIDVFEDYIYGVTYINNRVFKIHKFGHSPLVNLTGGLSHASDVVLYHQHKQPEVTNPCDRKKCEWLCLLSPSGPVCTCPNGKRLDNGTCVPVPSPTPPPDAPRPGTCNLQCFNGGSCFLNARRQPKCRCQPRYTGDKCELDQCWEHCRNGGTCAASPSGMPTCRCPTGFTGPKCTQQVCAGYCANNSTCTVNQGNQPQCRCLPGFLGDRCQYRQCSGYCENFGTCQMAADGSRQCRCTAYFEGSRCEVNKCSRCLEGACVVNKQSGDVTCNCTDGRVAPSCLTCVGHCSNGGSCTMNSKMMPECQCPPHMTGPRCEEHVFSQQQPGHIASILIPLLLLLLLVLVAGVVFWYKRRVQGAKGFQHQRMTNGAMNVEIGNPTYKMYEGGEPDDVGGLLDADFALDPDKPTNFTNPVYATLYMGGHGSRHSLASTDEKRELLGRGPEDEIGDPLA

The target of experiment [1] is Recombinant human LRP1 cluster IV Fc chimera (human). As to the kind of experiment: SPR; LRP1 clusters II, III or IV immobilized on SPR chips; single-cycle kinetic experiment with monomeric tau, equilibrium analysis.
In experiment [2] the target is Recombinant human LRP1 cluster II Fc chimera (human). Described as above.
Experiment [3] deals with Full-length human low-density lipoprotein receptor-related protein 1 (LRP1) (human) (UniProt Q07954). Nature of the experiment: SPR; full-length LRP1 coupled to the chip (Biacore 3000); single-cycle kinetic titration of tau forms (3.8, 11.5, 34.4, 103.3, 310 nM, 3.5-min injections), with Ca2+; Req from a pseudo first-order fit plotted against concentration, KD by nonlinear regression.

Regarding “tau, 2N4R variant (recombinant, unmodified, produced in E. coli) (from UniProt P10636-8 1-441) (natural protein)”, the Kd in experiment [1] was 81 nM; in experiment [2] it was 69 nM; in experiment [3] it was 60 nM.

Substance “hyperphosphorylated 2N4R tau produced in Sf9 insect cells (from UniProt P10636-8 1-441) (natural protein; hyperphosphorylated (intermediate tau phosphorylation state); sites not printed)” had a dissociation constant (Kd) in experiment [3] of 243 nM.
